Like-named read-outs stand apart in the source and are kept apart here.
Legend:
Format in all cases: cell-based, human
mutant FXN gene [1] = details: FRDA neurons; fasudil 1 μM, ripasudil 0.5 μM, Y27632 0.5 μM vs DMSO
Source text: (§1) FIGS. 2A-D. The protein kinase FXN-RFs also mediate epigenetic repression of the mutant FXN gene in post-mitotic FRDA neurons and cardiomyocytes. (A, B) qRT-PCR analysis monitoring FXN transcription (A) and immunoblot analysis showing frataxin levels (B) in FRDA neurons expressing an shRNA targeting a protein kinase FXN-RF. (C, D) qRT-PCR analysis monitoring FXN transcription (C) and immunoblot analysis showing frataxin levels (D) in FRDA cardiomyocytes (CMCs) expressing an shRNA targeting a protein kinase FXN-RF. […] TPM, transcripts per million. […] We next asked whether inhibition of the 8 protein kinase FXN-RFs would also upregulate transcription of the mutant FXN gene in post-mitotic neurons and cardiomyocytes, the cell types most relevant to FRDA. To derive post-mitotic FRDA neurons, FRDA (GM23404) iPSCs were stably transduced with lentiviral vectors expressing Neurogenin-1 and Neurogenin-2 to promote neuronal differentiation, according to published methods (Busskamp et al., Mol Syst Biol, 2014, 10:760); for convenience, we refer to these cells as FRDA neurons.

mutant FXN gene [2] = details: FRDA cardiomyocytes; fasudil 1 μM, ripasudil 0.5 μM, Y27632 0.5 μM vs DMSO
Source text: (§2) FIGS. 2A-D. The protein kinase FXN-RFs also mediate epigenetic repression of the mutant FXN gene in post-mitotic FRDA neurons and cardiomyocytes. (A, B) qRT-PCR analysis monitoring FXN transcription (A) and immunoblot analysis showing frataxin levels (B) in FRDA neurons expressing an shRNA targeting a protein kinase FXN-RF. (C, D) qRT-PCR analysis monitoring FXN transcription (C) and immunoblot analysis showing frataxin levels (D) in FRDA cardiomyocytes (CMCs) expressing an shRNA targeting a protein kinase FXN-RF. […] TPM, transcripts per million. […] To derive FRDA cardiomyocytes, FRDA (GM23404) iPSCs were cultured for two days with chemically defined medium (“CDM3”, consisting of RPMI 1640 medium, albumin and ascorbic acid) supplemented with the GSK3ß inhibitor and Wnt signaling activator CHIR99021, then cultured for two days with CDM3 supplemented with the Wnt inhibitor Wnt-C59, and finally cultured with CDM3 alone, as previously described (Burridge et al., PLOS One, 2011, 6 (4):e18293. Ten days post-differentiation, beating colonies were dissociated and re-seeded to derive single cardiomyocytes: for convenience, we refer to these cells as FRDA cardiomyocytes.

FRDA neurons = test: MitoSOX staining and flow cytometry (mitochondrial ROS) in FRDA neurons; details: fasudil 1 μM, ripasudil 0.5 μM, Y27632 0.5 μM vs DMSO
Source text: (§3) FIGS. 3A-D. Inhibition of protein kinase FXN-RFs can ameliorate characteristic mitochondrial defects of FRDA post-mitotic neurons and cardiomyocytes. (A, B) Quantification of flow cytometry analysis of normal and FRDA neurons (A) or normal and FRDA CMCs (B) expressing an FXN-RF shRNA and stained with MitoSOX. (C, D) Analysis of the mitochondrial oxygen consumption rate in normal and FRDA neurons (C) or normal and FRDA CMCs (D) expressing an FXN-RF shRNA. […] (C, D) Analysis of the mitochondrial oxygen consumption rate in FRDA neurons (C) or FRDA CMCs (D) treated with a small molecule ROCK1/2 inhibitor. (E, F) Immunoblot analysis showing levels of mitochondrial proteins ACO and ISCU in FRDA neurons (E) or FRDA CMCs (F) treated with fasudil (1 μM), KD025 (1 μM), or ripasudil (0.5 μM). […] We next asked whether FXN-RF inhibition could ameliorate two characteristic mitochondrial defects of FRDA neurons and cardiomyocytes: increased levels of reactive oxygen species (ROS) and decreased oxygen consumption. In the first set of experiments, FRDA neurons and cardiomyocytes expressing a protein kinase FXN-RF shRNA were stained with MitoSOX (an indicator of mitochondrial superoxide levels and mitochondrial ROS production) followed by flow cytometry analysis. As expected. FRDA neurons and cardiomyocytes had increased levels of mitochondrial ROS production compared to normal neurons and cardiomyocytes (FIGS. 3A, B). […] In the second set of experiments, we measured mitochondrial oxygen consumption rate, which is related to ATP production, using an Agilent Seahorse XF Analyzer. As expected, mitochondrial oxygen consumption rate in FRDA neurons and cardiomyocytes was ˜60% of the level observed in normal neurons and cardiomyocytes (FIGS. 3C, D).

frataxin [3] = test: Immunoblot analysis of frataxin levels in FRDA cardiomyocytes; details: fasudil 1 μM, ripasudil 0.5 μM, Y27632 0.5 μM vs DMSO
Source text: as §2

FRDA cardiomyocytes = test: MitoSOX staining and flow cytometry (mitochondrial ROS) in FRDA cardiomyocytes; details: fasudil 1 μM, ripasudil 0.5 μM, Y27632 0.5 μM vs DMSO
Source text: as §3

frataxin [4] = test: Immunoblot analysis of frataxin levels in FRDA neurons; details: fasudil 1 μM, ripasudil 0.5 μM, Y27632 0.5 μM vs DMSO
Source text: as §1

Compound	transcription of the mutant FXN gene (FXN mRNA) (mutant FXN gene [1])	transcription of the mutant FXN gene (FXN mRNA) (mutant FXN gene [2])	mitochondrial ROS production (MitoSOX) (FRDA neurons)	frataxin protein levels (frataxin [3])	mitochondrial ROS production (MitoSOX) (FRDA cardiomyocytes)	frataxin protein levels (frataxin [4])
C[C@@H](N)[C@H]1CC[C@H](C(=O)Nc2ccncc2)CC1.Cl.Cl [Y27632, (+)-(R)-trans-4-(1-aminoethyl)-N-(4-pyridyl)cyclohexanecarboxamide dihydrochloride]	upregulated transcription of the mutant FXN gene	upregulated transcription of the mutant FXN gene	decreased mitochondrial ROS production	restored FXN mRNA and frataxin protein to normal levels	decreased mitochondrial ROS production	restored FXN mRNA and frataxin protein to normal levels
C[C@H]1CNCCCN1S(=O)(=O)c1cccc2cncc(F)c12 [ripasudil, 4-fluoro-5-[[(2S)-2-methyl-1,4-diazepan-1-yl]sulfonyl]isoquinoline]	upregulated transcription of the mutant FXN gene	upregulated transcription of the mutant FXN gene	decreased mitochondrial ROS production	restored FXN mRNA and frataxin protein to normal levels	decreased mitochondrial ROS production	restored FXN mRNA and frataxin protein to normal levels
O=S(=O)(c1cccc2cnccc12)N1CCCNCC1 [fasudil, 1-(5-isoquinolinesulfonyl)-homopiperazine]	upregulated transcription of the mutant FXN gene	upregulated transcription of the mutant FXN gene	decreased mitochondrial ROS production	restored FXN mRNA and frataxin protein to normal levels	decreased mitochondrial ROS production	restored FXN mRNA and frataxin protein to normal levels

— patent US12281308B2, “Inhibition of protein kinases to treat Friedreich ataxia” (University of Massachusetts, priority 2018, dated 2025)
